Screens deposited in PubChem BioAssay by National Center for Advancing Translational Sciences (NCATS).
GLP1R inv ag: GLP-1 receptor (human) inverse agonism | Potency, µM (series often up to 38.3 µM), without a hit: top-dose activity change, negative = inhibition, most hits filed as inhibitors | P43220 | HEK293 GLP-1R CRE-luciferase, luminescence, 24 h; GLP-1R form is constitutively active | 410,000 compounds, 1.6% hits; also: potency is read from the fitted curve at half-maximal effect; % is scaled to controls: 0 for no effect and ±100 for the full control effect; nearly all actives have a fitted effect of over 55% in size
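Assay principle: reduced luminescence from a cAMP-responsive reporter in HEK293 cells co-expressing a constitutively active GLP-1R. Conditions: 24 hr compound incubation, 37 deg C, 5% CO2.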
GLP1R cytotox: cytotoxicity in counter-screen for GLP-1R inverse agonists. AID 624418. Potency, µM (highest dose often 38.3 µM), without a hit: at the highest dose activity change, negative = inhibition, most hits filed as inhibitors. 410,000 compounds, 0.13% hits. HEK293 cAMP-luciferase reporter cells, luminescence, 24 h;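 also: loss of luciferase light is scored as toxicity; potency is read from the fitted curve at half-maximal effect; % is scaled to controls: 0 for no effect and ±100 for the full control effect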
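Step one: seed cells (200 cells/uL, DMEM with 10% Nu serum, 1% pen-strep). Step two: 12-hour incubation at 37 deg C. Step three: pin 23 nL compound, incubate 24 hr. Step four: add luciferase reagent, read luminescence 12 min later.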
Pin1 inh: human Pin1 inhibition; Q13526; 390,000 compounds, 0.009% hits; Pin1 FP peptide displacement, HiFluor488, 10 min; Potency, µM (series often up to 115 µM), for inactives: at the highest dose activity, negative = inhibition, actives largely listed as inhibitors; active = well fitted inhibition curve with a large enough effect in the polarisation, with a control signal flat, not every such curve was filed as active; inconclusive = small, poorly fitted or top-dose-only effect, or effect the other way, or a change in a side signal; inactive = no such curve, though single readings can be large or run the other way; the % refers to the polarisation; also: potency is read from the fitted curve at half-maximal effect; % is scaled to controls: 0 for no effect and ±100 for the full control effect
PTHR1 agonist: activates the human parathyroid hormone receptor PTHR1; Q03431; Potency, µM (series often up to 115 µM), without a hit: top-dose activation, most hits filed as activators; 410,000 compounds, 0.075% hits; AID 743266; HEK293 GP2 PTHR1 cells, GloSensor cAMP luminescence, 1 h; also: potency is read from the fitted curve at half-maximal effect; nearly all actives have a fitted effect of over 55% in size
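HEK-293-derived GP2 cells expressing PTHR1 and a GloSensor cAMP reporter, 3,000/well, plated overnight, given luciferin plus IBMX (each 0.5 mM as added) for 1 h at 37 °C, then compound for 1 h at 37 °C. Luminescence was read after 15 min at room temperature.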
miR-21 reporter: raises the signal of a miR-21 reporter | Potency, µM (highest dose often 38.3 µM), without a hit: at the top dose reporter change, positive = more light | HeLa miR-21 FLuc reporter, luciferase, 48 h | 340,000 tested, under 10 active; active = well fitted rising curve with a large enough effect; inconclusive = small, poorly fitted or top-dose-only effect; inactive = no such curve, though single readings can be large or run the other way;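 further: % of control where 0% means no effect; miR-21 action dims this reporter so a rising signal means less miR-21 action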
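HeLa cells stably expressing CMV-driven firefly luciferase with a downstream miR-21 binding sequence, endogenously expressing miR-21, were treated with titrations (up to about 40uM final) for 48 hours at 37 degree Celsius. Luciferase luminescence was read after lysis.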
GLP1R ag: activates the human GLP-1 receptor | P43220 | HEK293 GLP-1R CRE-luciferase, luminescence, 4-6 h; cells express a hypersensitive GLP-1R form | Potency, µM (highest dose often 45.6 µM), inactives show at the top dose activation, usual class: activators | 380,000 compounds, 0.007% hits | AID 624172; also: potency is read from the fitted curve at half-maximal effect; % of control where 0% means no effect
* marks the source's active call; other numbers are inactive results; i = inactive; ? = inconclusive; . = no result; [ ] = remark or other dose. Rows were chosen to be rich in hits. Some 1.7% of all compounds tested hit in one or more screens of this group. Unless noted, calls follow the shape of the dose curve; as a rule, active = well fitted curve in the direction sought with a large enough effect; inconclusive = small, poorly fitted or top-dose-only effect, or another doubt; inactive = no such curve, though single readings can be large; an effect the other way counts as inactive or inconclusive.

| item | canonical_smiles | GLP1R inv ag | PTHR1 agonist | GLP1R cytotox | miR-21 reporter | GLP1R ag | Pin1 inh |
| --- | --- | --- | --- | --- | --- | --- | --- |
| 1 | COc1ccc(NS(=O)(=O)c2cccc(NC(=O)c3ccc(S(=O)(=O)N4CCCCCC4)cc3)c2)cc1 | 7.9µM* | -34% | -5% | 30% | 1% | ? |
| 2 | COc1ccc(C(CNC(=O)c2cccc(NS(=O)(=O)c3ccccc3)c2)N(C)C)cc1 (stereo not given) | -21% | i | -4% | -14% | 7% | -4% |
| 3 | COc1ccc(C(CNC(=O)c2cccc(NS(=O)(=O)c3ccc(C)c(F)c3)c2)N(C)C)cc1 (stereo not given) | 11µM* | -8% | -18% | . | 10% | 1% |
| 4 | O=S(=O)(Nc1nc2ccccc2nc1Nc1cccc(S(=O)(=O)N2CCCCC2)c1)c1ccccc1 | 11µM* | -40% | -29% | 17% | -18% | . |
| 5 | CC(=O)c1ccc(OCC(=O)N2CCCCC2)cc1 | . | . | . | . | -3% | . |
| 6 | O=C(NCC(c1ccc(F)cc1)N1CCOCC1)c1ccc(OCc2ccccc2)cc1 (stereo not given) | 10µM* | -19% | -13% | . | 2% | 1% |
| 7 | COc1ccc(C(CNC(=O)c2cccc(S(=O)(=O)Nc3ccc(F)cc3)c2)N2CCCC2)cc1 (stereo not given) | 10µM* | i | -12% | . | -11% | 6% |
| 8 | COc1ccc(C(CNC(=O)c2ccc(OCc3ccccc3)cc2)N2CCOCC2)cc1 (stereo not given) | ? | i | -10% | . | 3% | 1% |
| 9 | S=C1NC2(CCCCC2)NN1c1ccccc1 | ? | i | -24% | -25% | 7% | -1% |
| 10 | CC1CCCC2(C1)NC(=S)N(c1ccccc1)N2 (stereo not given) | 5µM* | -12% | -31% | -24% | 3% | -8% |
| 11 | CC1CC(C)(C)CC2(C1)NC(=S)N(c1ccccc1)N2 (stereo not given) | 3.5µM* | i | -18% | -21% | 0% | -3% |
| 12 | Cc1ccc(NC(=O)c2ccc(CNS(=O)(=O)c3ccc4c(c3)C(C)(C)C(=O)N4C)cc2)cc1F | -3% | i | -1% | ? | . | 3% |
| 13 | Cc1ccc(-c2ccnc(N3CCC(C(N)=O)CC3)n2)cc1 | . | . | . | . | . | 8% |
| 14 | COc1ccc(NC(=O)/C=C/c2cc(Br)ccc2OC)cc1 | ? | -8%[57.5 µM] | 6% | 7% | -15% | 1% |
| 15 | COc1ccc(Br)cc1/C=C/C(=O)c1ccc(NC(C)=O)cc1 | 5µM* | -18% | -11% | ? | -38% | 3% |

Some of these compounds in order of the GLP1R ag value, rising:
| item | Structure | GLP1R ag |
| --- | --- | --- |
| 15 | COc1ccc(Br)cc1/C=C/C(=O)c1ccc(NC(C)=O)cc1 | -38% |
| 5 | CC(=O)c1ccc(OCC(=O)N2CCCCC2)cc1 | -3% |
| 11 | CC1CC(C)(C)CC2(C1)NC(=S)N(c1ccccc1)N2 (stereo not given) | 0% |
| 1 | COc1ccc(NS(=O)(=O)c2cccc(NC(=O)c3ccc(S(=O)(=O)N4CCCCCC4)cc3)c2)cc1 | 1% |
| 9 | S=C1NC2(CCCCC2)NN1c1ccccc1 | 7% |

Going on with the list.
| item | canonical_smiles | GLP1R inv ag | PTHR1 agonist | GLP1R cytotox | miR-21 reporter | GLP1R ag | Pin1 inh |
| --- | --- | --- | --- | --- | --- | --- | --- |
| 16 | COC(=O)CCN(Cc1ccco1)S(=O)(=O)c1ccc(F)cc1Br | . | . | . | . | . | -5% |
| 17 | O=C(COc1ccc(-c2nnc(N3CCCCC3)c3ccccc23)cc1)N1CCCCC1 | 10µM* | -17%[57.5 µM] | 0% | -1% | 2% | -11% |
| 18 | Cc1c(C(=O)NCCSCc2cccc(C(F)(F)F)c2)cnn1-c1ccc(Cl)cc1 | 5µM* | -23% | -4% | 7% | 15% | 5% |
| 19 | CC(=O)c1cnn(-c2ccc(Cl)cc2)c1C | 1% | -5% | 5% | -9% | 6% | -3% |
| 20 | CCCNc1nc(-c2ccccc2)c(C(=O)OCC)cc1C#N | ? | ? | -14% | 13% | 21% | 1% |
| 21 | C=CCNc1nc(-c2ccccc2)c(C(=O)OCC)cc1C#N | 5µM* | 0% | ? | 23% | 25% | -5% |
| 22 | Cc1ccsc1CNc1ncnc2ccc(-c3ccc4c(c3)OCO4)cc12 | . | . | . | . | . | 25% |
| 23 | O=C1CCc2cc(S(=O)(=O)Nc3ccc(Cl)cc3)ccc2N1 | . | . | . | . | . | 0% |
| 24 | COc1ccc(C)cc1S(=O)(=O)NCC(c1ccc(N(C)C)cc1)N1CCc2ccccc21 (stereo not given) | -8% | -16% | 9% | -1% | . | 5% |
| 25 | Cc1cc(C)c(S(=O)(=O)NCC(c2ccc(N(C)C)cc2)N2CCc3ccccc32)c(C)c1 (stereo not given) | 2µM* | -12% | 0% | -6% | . | 16% |
| 26 | COc1cccc(C2c3c(ncn(-c4cccnc4)c3=N)Oc3ccc4ccccc4c32)c1 (stereo not given) | . | . | . | . | . | 4% |
| 27 | COc1ccc(CCNC(=O)Cn2cc(S(=O)(=O)Cc3ccccc3Cl)c3ccccc32)cc1OC | -16% | -15% | -3% | -2% | . | 6% |
| 28 | Cc1ccc(Cl)cc1N1CCN(S(=O)(=O)c2ccc3c(c2)OCCO3)CC1 | 10µM* | i | 11% | -5% | 0% | 7% |
| 29 | COc1cc(Br)ccc1C1CC(=O)C(C)C(c2ccc(Br)cc2OC)N1 (stereo not given) | 10µM* | i | 3% | -1% | 11% | 3% |
| 30 | COc1ccccc1C1NC(c2ccccc2OC)C(C)C(=O)C1C (stereo not given) | 0% | -6%[57.5 µM] | 2% | -3% | -6% | -10% |

Grouped by structure, those above with a cyano group.
| item | canonical_smiles | GLP1R inv ag | PTHR1 agonist | GLP1R cytotox | miR-21 reporter | GLP1R ag | Pin1 inh |
| --- | --- | --- | --- | --- | --- | --- | --- |
| 20 | CCCNc1nc(-c2ccccc2)c(C(=O)OCC)cc1C#N | ? | ? | -14% | 13% | 21% | 1% |
| 21 | C=CCNc1nc(-c2ccccc2)c(C(=O)OCC)cc1C#N | 5µM* | 0% | ? | 23% | 25% | -5% |

Next structures
| item | canonical_smiles | GLP1R inv ag | PTHR1 agonist | GLP1R cytotox | miR-21 reporter | GLP1R ag | Pin1 inh |
| --- | --- | --- | --- | --- | --- | --- | --- |
| 31 | CC(=O)c1ccc(-c2csc3ncnc(Sc4nnnn4C)c23)cc1 | . | . | . | . | . | 0% |
| 32 | CC(O)CNC(=O)C(=O)Nc1c2c(nn1-c1ccc(Cl)cc1)CSC2 (stereo not given) | -8% | i | 0% | -2% | . | -2% |
| 33 | COCCNC(=S)N/N=C(\C)c1cccc(OC)c1 | 4µM* | i | ? | -3% | 6% | -2% |
| 34 | C/C(=N\NC(=S)NCc1ccccc1)c1ccc(Cl)s1 | -6% | -21% | 9% | -2% | 16% | 2% |
| 35 | CCNC(=S)N/N=C(\C)c1cccc(C(F)(F)F)c1 | 4.5µM* | -11% | 4.5µM* | -14% | 16% | 4% |
| 36 | COCCNC(=S)N/N=C(\C)c1ccc(Cl)c(Cl)c1Cl | ? | i | 3.5µM* | -15% | 21% | -3% |
| 37 | COCCNC(=S)N/N=C(\C)c1ccc(Cl)s1 | 2.2µM* | i | 2.8µM* | -2% | 11% | -2% |
| 38 | COCCNC(=S)N/N=C(\C)c1ccc(Cl)c(Cl)c1 | ? | 23% | 7% | -31% | 24% | -5% |
| 39 | O=C(Nc1ccc2nc(SCC(=O)N3CCOCC3)sc2c1)c1ccccc1Cl | -25% | -57% | -20% | 20% | . | 0% |
| 40 | Cc1cccc(-c2c3c(=O)n(C)c(=O)n(C)c3cn2-c2cc(N)c(Cl)cc2Cl)c1 | ? | -37% | -7% | ? | . | -1% |
| 41 | O=C(CC1N=C2c3ccccc3N=C(SCC(=O)Nc3cccc(C(F)(F)F)c3)N2C1=O)NCc1cccs1 (stereo not given) | -21% | i | -12% | 4% | . | 20% |
| 42 | CCOC(=O)c1cccc(NS(=O)(=O)c2ccc3[nH]c4c(c3c2)CCCC4)c1 | ? | i | ? | 20% | . | 3% |
| 43 | O=c1c2ccccc2cnn1Cc1ccc(Cl)c(Cl)c1 | 10µM* | -90% | 12% | -10% | 34% | 10% |
